Amino acid sequences for entries named in this document (tags omitted).
UniProt P20288, whole entry: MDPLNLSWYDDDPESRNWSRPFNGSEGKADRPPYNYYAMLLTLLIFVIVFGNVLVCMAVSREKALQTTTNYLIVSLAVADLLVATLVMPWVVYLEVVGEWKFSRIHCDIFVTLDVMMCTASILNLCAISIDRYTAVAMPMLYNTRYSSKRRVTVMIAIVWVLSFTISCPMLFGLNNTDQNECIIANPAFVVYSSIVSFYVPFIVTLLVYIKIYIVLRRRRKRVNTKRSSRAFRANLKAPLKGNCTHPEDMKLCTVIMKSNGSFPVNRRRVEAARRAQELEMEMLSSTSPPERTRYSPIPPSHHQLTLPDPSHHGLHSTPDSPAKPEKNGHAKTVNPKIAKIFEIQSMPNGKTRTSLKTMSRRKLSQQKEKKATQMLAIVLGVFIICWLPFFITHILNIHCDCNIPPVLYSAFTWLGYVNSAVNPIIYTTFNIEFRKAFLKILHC

According to BindingDB's records for PubMed 8386236 (Whitby Research, 1993):

Biological target: D(2) dopamine receptor (Bos taurus, UniProt P20288)

Q: For `CC(C)(C)[C@]1(O)CCN2C[C@H]3c4ccccc4CCc4cccc(c43)[C@@H]2C1`, which Ki is on record?
A: > 10 µM
